Read-outs that look alike come from different tables or passages of the source.
Key:
[1] = target: hFASN enzyme (full length) (Homo sapiens, UniProt P49327); test: Fatty Acid Synthase (FASN) inhibition scintillation proximity assay; assay type: biochemical; conditions: for Human FASN % inhibition @ 10 μM: 10 μM test compound
[2] = tested on: LNCaP-Vancouver prostate cells; test: In vitro LNCaP Vancouver prostate cell proliferation assay in lipid reduced medium; assay type: cell-based; conditions: mean where tested more than once, ~ = standard error of pIC50 larger than 0.5
[3] = tested on: PC-3M-Luc-C6 prostate cells; test: In vitro PC-3M-Luc-C6 prostate cell proliferation assay in lipid reduced medium; assay type: cell-based; conditions: 96 h incubation, ATP-glow luminescence, mean where tested more than once, ~ = standard error of pIC50 larger than 0.5
A2780 ovarian cells [4] = test: A2780 ovarian cell proliferation assay in lipid reduced medium, without palmitate (MTT); conditions: 96 h incubation, "~" = standard error of pIC50 larger than 0.5
A2780 ovarian cells [5] = test: A2780 ovarian cell proliferation assay in lipid reduced medium, with palmitate (MTT); conditions: 25 μM palmitate, 96 h incubation, "~" = standard error of pIC50 larger than 0.5
[6] = target: Fatty Acid Synthase Keto-reductase Domain (FASN KR) (Homo sapiens, UniProt P49327); test: Fatty Acid Synthase keto-reductase domain (FASN KR) inhibition, NADPH oxidation at 340 nm; conditions: absorbance at 340 nm, ethyl acetoacetate substrate

Protein sequences, listed by entry. Tags and fused reporters are not part of them.
UniProt P49327, whole entry: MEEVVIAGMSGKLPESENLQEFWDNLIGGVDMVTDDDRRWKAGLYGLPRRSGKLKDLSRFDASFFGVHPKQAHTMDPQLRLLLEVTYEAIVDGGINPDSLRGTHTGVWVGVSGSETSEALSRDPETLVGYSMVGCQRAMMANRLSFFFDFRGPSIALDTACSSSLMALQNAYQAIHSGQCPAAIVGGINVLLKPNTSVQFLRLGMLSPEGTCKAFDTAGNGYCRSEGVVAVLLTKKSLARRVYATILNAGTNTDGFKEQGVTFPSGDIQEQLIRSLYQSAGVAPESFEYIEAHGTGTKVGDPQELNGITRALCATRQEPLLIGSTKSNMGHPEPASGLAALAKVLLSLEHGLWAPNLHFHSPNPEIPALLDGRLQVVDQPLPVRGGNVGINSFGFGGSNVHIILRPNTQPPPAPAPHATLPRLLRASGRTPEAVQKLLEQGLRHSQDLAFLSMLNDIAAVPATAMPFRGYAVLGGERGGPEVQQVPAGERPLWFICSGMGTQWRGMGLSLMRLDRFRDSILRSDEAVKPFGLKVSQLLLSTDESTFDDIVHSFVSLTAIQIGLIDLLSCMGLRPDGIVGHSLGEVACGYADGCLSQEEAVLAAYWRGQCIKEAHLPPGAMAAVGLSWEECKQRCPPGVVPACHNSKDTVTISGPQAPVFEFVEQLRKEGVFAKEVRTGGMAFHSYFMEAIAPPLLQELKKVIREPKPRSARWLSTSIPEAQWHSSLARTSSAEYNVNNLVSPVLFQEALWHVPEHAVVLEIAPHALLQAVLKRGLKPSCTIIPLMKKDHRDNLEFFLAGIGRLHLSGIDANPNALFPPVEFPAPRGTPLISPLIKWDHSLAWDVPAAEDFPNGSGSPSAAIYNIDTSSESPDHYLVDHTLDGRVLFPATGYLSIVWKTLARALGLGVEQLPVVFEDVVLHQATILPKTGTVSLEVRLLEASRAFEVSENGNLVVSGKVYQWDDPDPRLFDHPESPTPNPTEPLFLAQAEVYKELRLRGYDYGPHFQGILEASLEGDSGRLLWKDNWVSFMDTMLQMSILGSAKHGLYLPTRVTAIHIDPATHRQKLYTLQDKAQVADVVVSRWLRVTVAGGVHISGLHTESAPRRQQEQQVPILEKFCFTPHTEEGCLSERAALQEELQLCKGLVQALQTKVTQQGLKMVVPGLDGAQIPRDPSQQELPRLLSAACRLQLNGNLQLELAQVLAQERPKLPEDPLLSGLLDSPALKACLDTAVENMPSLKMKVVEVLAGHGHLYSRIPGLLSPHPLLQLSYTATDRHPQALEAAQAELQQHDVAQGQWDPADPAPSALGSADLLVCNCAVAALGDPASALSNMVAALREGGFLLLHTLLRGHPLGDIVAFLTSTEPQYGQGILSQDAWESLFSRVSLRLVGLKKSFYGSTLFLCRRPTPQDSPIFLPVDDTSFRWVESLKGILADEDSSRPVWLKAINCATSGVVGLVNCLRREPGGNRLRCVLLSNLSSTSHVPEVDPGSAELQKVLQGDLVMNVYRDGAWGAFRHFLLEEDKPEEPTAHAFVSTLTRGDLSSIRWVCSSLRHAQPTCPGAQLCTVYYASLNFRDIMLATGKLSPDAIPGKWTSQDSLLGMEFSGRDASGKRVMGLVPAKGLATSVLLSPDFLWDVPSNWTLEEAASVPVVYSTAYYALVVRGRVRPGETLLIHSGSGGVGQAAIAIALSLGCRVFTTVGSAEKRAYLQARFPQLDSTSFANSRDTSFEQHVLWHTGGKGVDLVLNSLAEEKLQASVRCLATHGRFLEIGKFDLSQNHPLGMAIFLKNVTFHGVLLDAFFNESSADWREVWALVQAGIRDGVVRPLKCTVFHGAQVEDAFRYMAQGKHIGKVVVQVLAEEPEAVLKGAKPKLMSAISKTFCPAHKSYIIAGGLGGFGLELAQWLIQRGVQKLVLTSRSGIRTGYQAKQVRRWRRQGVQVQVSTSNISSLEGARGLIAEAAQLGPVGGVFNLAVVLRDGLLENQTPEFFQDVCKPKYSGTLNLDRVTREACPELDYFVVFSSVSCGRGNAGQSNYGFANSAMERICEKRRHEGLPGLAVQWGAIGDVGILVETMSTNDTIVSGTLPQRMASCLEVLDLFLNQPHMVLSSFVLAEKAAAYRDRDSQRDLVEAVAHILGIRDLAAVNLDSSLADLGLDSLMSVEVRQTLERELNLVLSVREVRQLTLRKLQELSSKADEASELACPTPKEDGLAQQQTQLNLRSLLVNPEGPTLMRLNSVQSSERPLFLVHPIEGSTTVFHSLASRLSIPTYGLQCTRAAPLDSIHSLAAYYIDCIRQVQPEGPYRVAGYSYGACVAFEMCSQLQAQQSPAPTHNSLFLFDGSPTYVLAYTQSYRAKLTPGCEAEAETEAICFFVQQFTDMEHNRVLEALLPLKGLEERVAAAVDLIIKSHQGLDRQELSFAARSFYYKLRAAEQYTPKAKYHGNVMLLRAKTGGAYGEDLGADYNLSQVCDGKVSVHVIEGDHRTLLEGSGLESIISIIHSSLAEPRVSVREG

Human FASN pIC50 ([1]; hFASN enzyme, full length, "~" means standard error of the pIC50 is larger than 0.5) | Compound | Human FASN pIC50 [1] | Human FASN % inhibition @ 10 μM [1] | pIC50 LNCaP_Vancouver prostate cell [2] | pIC50 PC-3M-Luc-C6 prostate cell [3] | pIC50 A2780 Ovarian Cell, Without Palmitate (A2780 ovarian cells [4]) | pIC50 A2780 Ovarian Cell, With Palmitate (A2780 ovarian cells [5]) | FASN Keto-reductase Domain pIC50 [6]
 | O=C(C1CC1)N1CC[C@@H](CN2C(=O)C3(CC3)N=C2c2ccc(-c3ccc4[nH]ncc4c3)cn2)C1 | 6.29 | 96% | 5.39 | 6.11 | 6.19 | <5 | 5.96
5.8 | Cn1ncc2cc(-c3ccc(C4=NC5(CC5)C(=O)N4CC4CN(C(=O)C5(O)CC5)C4)cc3Cl)ccc21 |  | 82% | <5 | 5.66 | 5.66 | <5 | 5.6
